Results on one molecule are retold here after patent EP4702992A1, “ANTIBODY-DRUG CONJUGATE” (priority 2023, dated 2024).

Data set [1] can be described thus: ADC hydrophilicity by hydrophobic interaction chromatography (HIC). The class given is physicochemical. To be noted: HIC-HPLC, TSKgel Butyl-NPR.
In another data set the test system is KB xenograft tumor. As to the kind of experiment: Pharmacodynamic evaluation in KB xenograft tumor mouse model. To be noted: single intravenous injection; for Mean tumor volume (Day 0): Day 0 (day of grouping), mean ± standard error. Format: in vivo, nu/nu nude mice. The text has this:
(§1) Cells were taken from the FRα-positive cell strain KB and inoculated into the right forelimb axilla of nu/nu nude mice at 10^7 cells/mouse (6 mice per group). When the mean tumor volumes of the mice reached about 100 mm^3 (groups 1-6) and 145 mm^3 (groups 7-8), the mice were randomly grouped and subjected to administration by a single intravenous injection. The day of grouping was defined as Day 0, and the administration was started on Day 0. After tumor grafting, the experimental animals were routinely monitored for tumor growth and the effect of treatment on the normal behavior, specifically the activity, food and water intake, body weight gain or loss (the body weight was measured twice a week), and abnormalities in eyes, fur, and other aspects. Calculation formula for tumor volume: Tumor volume (mm^3) = 1/2 × (a × b^2) (where a represents the long diameter, and b represents the short diameter). Table 15: Efficacy of groups 1-6 in KB xenograft tumor model

The subject of a further data set is NCI-H441 xenograft tumor. Put plainly: Pharmacodynamic evaluation in NCI-H441 xenograft tumor mouse model. Format: in vivo, nu/nu nude mice. To be noted: NCI-H441, 1 mg/kg, single intravenous injection.
Text: as §1, with “strain NCI-H441” for “strain KB”, “(groups 1-6),” for “(groups 1-6) and 145 mm^3 (groups 7-8),”, “Table 17:” for “Table 15:”, “of each group” for “of groups 1-6”, “in NCI-H441” for “in KB”

The test system of another data set is SW620 xenograft tumor. As to the kind of experiment: Pharmacodynamic evaluation in SW620 xenograft tumor mouse model. The class given is in vivo, nu/nu nude mice. The following applies: SW620, 1.5 mg/kg, single intravenous injection.
Text: as §1, with “strain SW620” for “strain KB”, “about 130” for “about 100”, “(groups 1-2),” for “(groups 1-6) and 145 mm^3 (groups 7-8),”, “Table 18:” for “Table 15:”, “of each group” for “of groups 1-6”, “in SW620” for “in KB”

The next data set concerns OV-90 xenograft tumor. As to the kind of experiment: Pharmacodynamic evaluation in OV-90 xenograft tumor mouse model. The class given is in vivo, NCG and NOD SCID immunodeficient mice. To be noted: for Mean tumor volume (Day 0): Day 0 (day of grouping); for Mean tumor volume (Day 0) / Mean tumor volume (Day 11): mean ± standard error; for TGI(%) / Mean tumor volume (Day 11): Day 11. The text has this:
Cells were taken from the FRα-positive cell strain OV-90 and inoculated into the right forelimb axilla of NCG and NOD SCID immunodeficient mice aged 4-6 weeks at 10^7 cells/mouse (3 mice per group). When the mean tumor volumes of the mice reached about 180 mm^3 (groups 1-3) and 145 mm^3 (groups 4-5), the mice were randomly grouped and subjected to administration. The day of grouping was defined as Day 0, and the administration was started on Day 0. After tumor grafting, the experimental animals were routinely monitored for tumor growth and the effect of treatment on the normal behavior, specifically the activity, food and water intake, body weight gain or loss (the body weight was measured twice a week), and abnormalities in eyes, fur, and other aspects. Calculation formula for tumor volume: Tumor volume (mm^3) = 1/2 × (a × b^2) (where a represents the long diameter, and b represents the short diameter). Table 19: Efficacy of each group in OV-90 xenograft tumor model

[2] abbreviates: OV-90, NCG immunodeficient mice, 1 mg/kg.
The mark [3] stands for this setting: OV-90, NCG immunodeficient mice, 5 mg/kg.
[4] abbreviates: OV-90, NOD SCID immunodeficient mice, 3 mg/kg.

B1: F-ADC55-1-8 (conjugate)
heavy: EVQLVESGGGVVQPGRSLRLSCSASGFTFSGYGLSWVRQAPGKGLEWVAMISSGGSYTYYADSVKGRFAISRDNAKNTLFLQMDSLRPEDTGVYFCARHGDDPAWFAYWGQGTPVTVSSASTKGPSVFPLAPSSKSTSGGTAALGCLVKDYFPEPVTVSWNSGALTSGVHTFPAVLQSSGLYSLSSVVTVPSSSLGTQTYICNVNHKPSNTKVDKKV[human IgG1 Fc not given here]
light: DIQLTQSPSSLSASVGDRVTITCSVSSSISSNNLHWYQQKPGKAPKPWIYGTSNLASGVPSRFSGSGSGTDYTFTISSLQPEDIATYYCQQWSSYPYMYTFGQGTKVEIKRTVAAPSVFIFPPSDEQLKSGTASVVCLLNNFYPREAKVQWKVDNALQSGNSQESVTEQDSKDSTYSLSSTLTLSKADYEKHKVYACEVTHQGLSSPVTKSFNRGEC
Consider B1, for which the Retention time in data set [1] was determined as 6.123 min. Moreover, the “Mean tumor volume (Day 0)” value in the data set with KB xenograft tumor (1.5 mg/kg) amounted to 145.4±25.9 mm^3; in the data set with KB xenograft tumor (3 mg/kg), 98.6±10.6 mm^3; in the data set on NCI-H441 xenograft tumor (Day 0 (day of grouping), mean ± standard error), 107.1±19.5 mm^3; in the data set on SW620 xenograft tumor (Day 0 (day of grouping)), 130.3±15.3 mm^3; in the data set with OV-90 xenograft tumor (setting [2]) it was 180.7±33.8 mm^3; in the data set with OV-90 xenograft tumor (setting [3]), 181.4±37.7 mm^3. Besides, the “Mean tumor volume (Day 0)” value with OV-90 xenograft tumor (setting [4]) amounted to 145.2±10.7 mm^3. Also, the “TGI(%)” value with KB xenograft tumor (1.5 mg/kg, Day 20) is on record as 105.6%; in the data set with KB xenograft tumor (3 mg/kg, Day 30), 104.7%; in the data set on NCI-H441 xenograft tumor (Day 32), 117.5%; in the data set on SW620 xenograft tumor (Day 14) it was 113.3%; with OV-90 xenograft tumor (setting [2]), 110.9%; in the data set with OV-90 xenograft tumor (setting [3]), 120.7%. For the same molecule, the “TGI(%)” value with OV-90 xenograft tumor (setting [4]) amounted to 126.1%. Moreover, in the data set on KB xenograft tumor (1.5 mg/kg, Day 20, mean ± standard error), the “Mean tumor volume (Day 20)” value is given as 82.1±85.8 mm^3. Also, the “Mean tumor volume (Day 30)” value with KB xenograft tumor (3 mg/kg, Day 30, mean ± standard error) is 4.4±7.4 mm^3. In the data set with KB xenograft tumor (3 mg/kg, mice that achieved CR, 6 mice per group), this molecule had a CR of 4. Also, the “Mean tumor volume (Day 32)” value in the data set on NCI-H441 xenograft tumor (Day 32, mean ± standard error) turned out to be 33.9±13.0 mm^3. For the same molecule, the “Mean tumor volume (Day 14)” value in the data set with SW620 xenograft tumor (Day 14) was determined as 35.0±18.1 mm^3. For the same molecule, the “Mean tumor volume (Day 11)” value in the data set with OV-90 xenograft tumor (setting [2]) is reported as 104.9±30.0 mm^3; in the data set on OV-90 xenograft tumor (setting [3]), 37.5±1.3 mm^3; in the data set with OV-90 xenograft tumor (setting [4]) it was 29.2±8.4 mm^3.
